Target: human P2X3 receptor (Homo sapiens (Human), UniProt P56373)

Sequences of proteins named here, by UniProt entry; tags and fusion partners are left off. A change or cut given only in a name is not applied to a line headed by its entry.
UniProt P56373: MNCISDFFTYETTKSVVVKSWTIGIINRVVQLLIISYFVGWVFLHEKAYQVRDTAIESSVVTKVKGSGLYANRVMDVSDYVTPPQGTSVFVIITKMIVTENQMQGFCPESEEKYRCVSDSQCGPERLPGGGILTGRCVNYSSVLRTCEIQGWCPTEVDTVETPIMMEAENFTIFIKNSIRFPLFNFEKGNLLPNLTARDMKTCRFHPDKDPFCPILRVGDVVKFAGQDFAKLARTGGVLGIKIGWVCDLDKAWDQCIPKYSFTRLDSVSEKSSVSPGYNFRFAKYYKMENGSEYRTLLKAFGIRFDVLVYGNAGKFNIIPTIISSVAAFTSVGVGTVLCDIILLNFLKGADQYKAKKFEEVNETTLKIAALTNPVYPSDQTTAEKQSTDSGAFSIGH

IC50: 3 nM
Structure (SMILES): Cc1cnc(-c2cc(OC3CCN(C)C(C(F)(F)F)C3)cc(C(=O)N[C@H](C)c3cnc(C(F)(F)F)nc3)c2)s1 (single isomer, unassigned) [Example 223]
